US20220118170A1, “SYSTEMS, APPARATUS, AND METHODS FOR ADMINISTERING A SUBSTANCE” (Massachusetts Institute of Technology, priority 2015, published 2022)

Conditions: 20 kHz, 7.5 W/cm^2; sonicated vs unsonicated, P=0.48

For insulin aspart, the “Concentration of active insulin as a result of sonication” value was “No statistical difference”.
